# Reported water solubility values for industrial, environmental and drug-like chemicals

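These are experimental values that the OPERA curators gathered from public databases to train and test their QSAR models. The files give a single number for a compound and property, which may rest on several reports. Method and conditions are not stated for these values. A value may pool stereoisomers or salt forms, and the file does not say which form was measured. Some upstream entries may be estimates or bounds without being marked so.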

Water solubility is log10 of mol/L, nominally at 25 °C; higher is more soluble.

* C=CC(=O)OCCC(F)(F)C(F)(F)C(F)(F)C(F)(F)C(F)(F)C(F)(F)F: water solubility -6.041 (log10 mol/L)
* CCCCCCCCCCCCN1CC(C(=O)O)CC1=O (stereo unspecified): water solubility -3.223 (log10 mol/L)
* O=C(O)C=Cc1cccc(O)c1: water solubility -2.098 (log10 mol/L)
* Cc1cc(C(=O)NNCc2ccccc2)no1: water solubility -2.461 (log10 mol/L)
* NC(=O)Nc1ccc(Cl)c(Cl)c1: water solubility -2.959 (log10 mol/L)
* O=C(N/N=C/C=C/c1ccc([N+](=O)[O-])o1)c1ccc(Br)o1: water solubility -5.072 (log10 mol/L)
* C=CC(=O)OCCN(CC)S(=O)(=O)C(F)(F)C(F)(F)C(F)(F)C(F)(F)C(F)(F)C(F)(F)C(F)(F)C(F)(F)F: water solubility -5.847 (log10 mol/L)
* CC1(C)[C@@H]2CC[C@@]1(C)[C@H](O)[C@H]2N: water solubility -1.229 (log10 mol/L)
* O=C(O)Cc1ccc([N+](=O)[O-])cc1: water solubility -1.937 (log10 mol/L)
* CCC[C@H](NC(=O)[C@@H]1[C@H]2CCC[C@H]2CN1C(=O)[C@@H](NC(=O)[C@@H](NC(=O)c1cnccn1)C1CCCCC1)C(C)(C)C)C(=O)C(=O)NC1CC1: water solubility -4.721 (log10 mol/L)
* NS(=O)(=O)c1cc2c(s1)C(=O)CCS2(=O)=O: water solubility -3.671 (log10 mol/L)
* CCOC(=O)CN[C@@H](C(=O)N1CC[C@H]1C(=O)NCc1ccc(/C(N)=N/O)cc1)C1CCCCC1: water solubility -3.749 (log10 mol/L)
* C[C@@H]1C[C@H]2[C@@H]3CCC4=CC(=O)C=C[C@]4(C)[C@@]3(F)[C@@H](O)C[C@]2(C)[C@H]1C(=O)CO: water solubility -4.084 (log10 mol/L)
* NC(=O)CC(CC(=O)O)c1ccc(Cl)cc1 (stereo unspecified): water solubility -2.286 (log10 mol/L)
* CN1[C@@H](C(=O)O)CC[C@H]1C(=O)O: water solubility -0.443 (log10 mol/L)
* COc1cc(C#N)ccc1C1C(C(=O)OCCC#N)=C(C)Nc2c(C)cnc(O)c21 (stereo unspecified): water solubility -4.814 (log10 mol/L)
* Cc1no[n+]([O-])c1C: water solubility -0.535 (log10 mol/L)
* NC[C@H](O)CC[C@H](N)C(=O)O: water solubility -0.848 (log10 mol/L)
* O=C(O)c1cccc(Cl)n1: water solubility -1.631 (log10 mol/L)
* CN(C)C(=O)c1ccccc1: water solubility -0.824 (log10 mol/L)
* CC(CCO)CCC=O (stereo unspecified): water solubility -1.073 (log10 mol/L)
* CCCCCCCCCCCC(=O)OCC[N+](C)(C)C.[Cl-]: water solubility -2.211 (log10 mol/L)
* Clc1ccc(Oc2ccc(Cl)c(Cl)c2Cl)cc1: water solubility -7.01 (log10 mol/L)
* Cc1c2oc3c(C)ccc(C(=O)N[C@@H]4C(=O)N[C@H](C(C)C)C(=O)N5CCC[C@H]5C(=O)N(C)CC(=O)N(C)[C@@H](C(C)C)C(=O)O[C@@H]4C)c3nc-2c(C(=O)N[C@@H]2C(=O)N[C@H](C(C)C)C(=O)N3CCC[C@H]3C(=O)N(C)CC(=O)N(C)[C@@H](C(C)C)C(=O)O[C@@H]2C)c(N)c1=O: water solubility -4.798 (log10 mol/L)
* Cn1c(=O)cc2c3c(c(Br)ccc31)C(=O)c1ccccc1-2: water solubility -6.68 (log10 mol/L)
* NC(=O)Nc1cccc(Cl)c1: water solubility -2 (log10 mol/L)
* Cc1cc(N(CCO)CCO)ccc1N=Nc1ccc([N+](=O)[O-])cc1Cl: water solubility -6.57 (log10 mol/L)
* N#Cc1c(N)nc(NC2CC2)nc1N: water solubility -0.58 (log10 mol/L)
* N.N.O=C(O)CCCCC(C(=O)[O-])C(=O)[O-].[Pt+2]: water solubility -1.635 (log10 mol/L)
* CCCCCCCCCCCCCCCCCCCCCC(=O)OCC(CO)(CO)COC(=O)CCCCCCCCCCCCCCCCCCCCC: water solubility -8.349 (log10 mol/L)
* CCC(=O)OCCCCCOC(=O)CC: water solubility -2.231 (log10 mol/L)
* CSc1cnc2cncnc2n1: water solubility -1.55 (log10 mol/L)
* O=[N+]([O-])c1ccc(N/N=C\CCCO)c([N+](=O)[O-])c1: water solubility -2.826 (log10 mol/L)
* CC1CCCCC1(O)C(=O)O (stereo unspecified): water solubility -0.898 (log10 mol/L)
* Clc1cccc(Oc2cc(Cl)c(Cl)cc2Cl)c1: water solubility -7.27 (log10 mol/L)
* CCCS(=O)(=O)Nc1ccc(F)c(C(=O)c2c[nH]c3ncc(Br)cc23)c1F: water solubility -3.839 (log10 mol/L)
* Nc1cc(S(N)(=O)=O)ccc1S(=O)(=O)CCO: water solubility -1.327 (log10 mol/L)
* CC(=O)[C@H](C)NC(N)=O: water solubility -0.778 (log10 mol/L)
* CNC(=O)c1ccccc1: water solubility -0.921 (log10 mol/L)
* CCCC(=O)OCOC(=O)c1ccccc1OC(C)=O: water solubility -2.904 (log10 mol/L)
* Oc1nc(C(F)(F)F)nc2nc[nH]c12: water solubility -2.253 (log10 mol/L)
* CCCC(=O)OCC(O)CO (stereo unspecified): water solubility -1.33 (log10 mol/L)
* CN(C)C(=O)c1ccccc1O[C@@H]1OC[C@H](O)[C@H](O)[C@H]1O: water solubility -0.871 (log10 mol/L)
* Nc1ccc(-c2ccc(N)cc2S(=O)(=O)O)c(S(=O)(=O)O)c1: water solubility -2.62 (log10 mol/L)
* NS(=O)(=O)c1cc2c(cc1Cl)NC(C1CC3C=CC1C3)NS2(=O)=O (stereo unspecified): water solubility -3.145 (log10 mol/L)
* CCN(CCC#N)c1ccc(N=Nc2c(Br)cc([N+](=O)[O-])cc2Br)cc1: water solubility -4.381 (log10 mol/L)
* Nc1ncnc2c1ncn2[C@H]1CC[C@@H](CO)O1: water solubility -2.526 (log10 mol/L)
* C[C@@H]1C[C@H]2[C@@H]3C[C@H](F)C4=CC(=O)C=C[C@]4(C)[C@H]3[C@@H](O)C[C@]2(C)[C@@]1(O)C(=O)CO: water solubility -3.432 (log10 mol/L)
* CCCC(=O)n1ncc2c(=O)[nH]cnc21: water solubility -3.273 (log10 mol/L)
* NC(=O)Nc1ccc(F)cc1: water solubility -1.22 (log10 mol/L)
* O=C(O)/C=C/c1c[nH]cn1: water solubility -1.96 (log10 mol/L)
* Brc1ccc(Br)c2ccccc12: water solubility -5.36 (log10 mol/L)
* CCOC1=CC(=CNNC(N)=O)C=CC1=O: water solubility -2.805 (log10 mol/L)
* CC(=O)Nc1c(I)cc(I)c(C(=O)O)c1I: water solubility -2.64 (log10 mol/L)

Repeated from above, the 3 entries with the highest water solubility:

| compound | water solubility (log10 mol/L) |
|---|---|
| CN1[C@@H](C(=O)O)CC[C@H]1C(=O)O | -0.443 |
| Cc1no[n+]([O-])c1C | -0.535 |
| N#Cc1c(N)nc(NC2CC2)nc1N | -0.58 |

Source: data files of OPERA 2.9 (Mansouri et al.), github.com/kmansouri/OPERA.